Experimental findings from ChEMBL document CHEMBL2169781, “Discovery and biological evaluation of a novel class of dual microsomal prostaglandin E2 synthase-1/5-lipoxygenase inhibitors based on 2-[(4,6-diphenethoxypyrimidin-2-yl)thio]hexanoic acid” (J Med Chem, 2011) are described below.

This assay addresses T1, Polyunsaturated fatty acid 5-lipoxygenase (Homo sapiens) (UniProt P09917).
T1 sequence (whole entry): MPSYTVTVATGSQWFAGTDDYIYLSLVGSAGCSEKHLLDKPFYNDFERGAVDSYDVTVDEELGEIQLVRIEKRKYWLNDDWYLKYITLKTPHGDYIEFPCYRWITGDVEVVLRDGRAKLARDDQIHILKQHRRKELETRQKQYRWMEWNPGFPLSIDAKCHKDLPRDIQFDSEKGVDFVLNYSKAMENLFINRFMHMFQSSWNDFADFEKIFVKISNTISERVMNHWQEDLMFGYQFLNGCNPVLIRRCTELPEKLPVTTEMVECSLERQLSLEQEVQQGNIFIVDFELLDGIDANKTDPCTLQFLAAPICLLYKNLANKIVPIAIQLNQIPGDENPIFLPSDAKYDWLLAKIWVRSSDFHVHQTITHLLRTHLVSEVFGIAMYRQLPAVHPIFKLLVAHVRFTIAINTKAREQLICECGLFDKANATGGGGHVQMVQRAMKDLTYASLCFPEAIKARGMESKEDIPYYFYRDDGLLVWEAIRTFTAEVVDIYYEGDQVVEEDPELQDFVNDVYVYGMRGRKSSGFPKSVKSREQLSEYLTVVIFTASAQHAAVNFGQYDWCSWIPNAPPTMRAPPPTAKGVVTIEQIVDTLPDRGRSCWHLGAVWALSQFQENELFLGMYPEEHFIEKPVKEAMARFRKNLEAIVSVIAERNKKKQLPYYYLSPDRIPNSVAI
Put plainly: Inhibition of human recombinant 5-lipoxygenase-mediated product formation from arachidonic acid assessed as remaining activity at 10 uM after 5 to 10 mins by HPLC analysis. The method in brief:
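Human 5-LO expressed in E. coli BL21 (pT3-5LO) at 37 °C, purified and used at once. Enzyme (0.5 μg/mL in PBS/EDTA with 1 mM ATP) preincubated with compound 5–10 min at 4 °C, prewarmed 30 s at 37 °C, started with 2 mM CaCl₂ + 20 μM AA (±1 μM 13(S)-HpODE), 10 min at 37 °C, stopped with cold methanol, products by HPLC.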

`CCCCC(Oc1cc(OCCc2ccccc2)cc(OCCc2ccccc2)c1)C(=O)O` (stereo unspecified): the Activity stood at 60%.
